Each structure is given as a SMILES string. Where a name gives a salt, the structure may show the parent alone. Some results are limits rather than exact numbers.

Sequences of proteins named here, by UniProt entry; tags and fusion partners are left off. A change or cut given only in a name is not applied to a line headed by its entry.
UniProt O00329: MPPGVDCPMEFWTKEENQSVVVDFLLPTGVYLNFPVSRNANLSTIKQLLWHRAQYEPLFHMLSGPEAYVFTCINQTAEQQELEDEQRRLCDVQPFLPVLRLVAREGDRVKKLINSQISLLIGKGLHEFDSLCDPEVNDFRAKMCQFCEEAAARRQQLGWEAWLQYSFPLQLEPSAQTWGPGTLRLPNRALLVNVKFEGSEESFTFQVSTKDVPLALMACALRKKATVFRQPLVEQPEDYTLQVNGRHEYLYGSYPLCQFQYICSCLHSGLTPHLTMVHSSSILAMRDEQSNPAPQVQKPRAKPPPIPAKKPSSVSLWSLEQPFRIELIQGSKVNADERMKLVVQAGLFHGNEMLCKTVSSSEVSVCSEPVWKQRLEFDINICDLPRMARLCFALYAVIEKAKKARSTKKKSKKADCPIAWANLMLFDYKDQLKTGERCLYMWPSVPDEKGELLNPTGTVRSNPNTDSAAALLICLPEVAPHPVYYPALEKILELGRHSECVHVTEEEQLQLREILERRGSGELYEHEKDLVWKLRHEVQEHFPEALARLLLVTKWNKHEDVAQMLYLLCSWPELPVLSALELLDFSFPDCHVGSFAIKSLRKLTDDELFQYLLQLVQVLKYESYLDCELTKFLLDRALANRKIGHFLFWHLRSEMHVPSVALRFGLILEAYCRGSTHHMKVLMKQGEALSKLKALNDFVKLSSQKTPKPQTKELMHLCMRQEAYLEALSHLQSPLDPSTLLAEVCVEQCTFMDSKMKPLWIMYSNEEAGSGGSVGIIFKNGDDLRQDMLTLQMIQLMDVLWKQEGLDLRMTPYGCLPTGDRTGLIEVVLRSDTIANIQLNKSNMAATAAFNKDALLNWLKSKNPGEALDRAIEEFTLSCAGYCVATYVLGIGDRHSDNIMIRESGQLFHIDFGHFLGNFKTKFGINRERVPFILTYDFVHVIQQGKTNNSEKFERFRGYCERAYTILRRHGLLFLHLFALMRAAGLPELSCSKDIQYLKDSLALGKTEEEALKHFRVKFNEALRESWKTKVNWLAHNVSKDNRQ

This experiment concerns the target GST-tagged PIK3Cδ in complex with PIK3R1 (Homo sapiens (Human), UniProt O00329). The experiment can be described thus: biochemical.
With `COc1ncc(-c2cc(C(F)(F)F)c3c(N)ncnn23)cc1C(=O)NCCC(O)c1ccccc1` (centres unmarked) [Example 117, 5-[4-amino-5-(trifluoromethyl)pyrrolo[2,1-f][1,2,4]triazin-7-yl]-N-(3-hydroxy-3-phenylpropyl)-2-methoxypyridine-3-carboxamide], the IC50 (as a rule, the concentration needed to halve the response being measured) was found to be 0.528 µM.
The result for `COc1ncc(-c2cc(C(F)(F)F)c3c(N)ncnn23)cc1C(=O)N[C@H]1CCN(Cc2ccccc2)C1` [Example 119, 5-[4-amino-5-(trifluoromethyl)pyrrolo[2,1-f][1,2,4]triazin-7-yl]-N-[(3S)-1-benzylpyrrolidin-3-yl]-2-methoxypyridine-3-carboxamide] reads 0.154 µM.
Take `COc1ncc(-c2cc(C(F)(F)F)c3c(N)ncnn23)cc1C(=O)NCCC(O)c1ccc(F)cc1` (centres unmarked) [Example 125, 5-[4-amino-5-(trifluoromethyl)pyrrolo[2,1-f][1,2,4]triazin-7-yl]-N-[3-(4-fluorophenyl)-3-hydroxypropyl]-2-methoxypyridine-3-carboxamide]: the IC50 is 1.1 µM.
In turn, `COc1ncc(-c2cc(C(F)(F)F)c3c(N)ncnn23)cc1C(=O)N1CCCC(Cc2cccc(F)c2)C1` (centres unmarked) [Example 129, 7-(5-{3-[(3-fluorophenyl)methyl]piperidine-1-carbonyl}-6-methoxypyridin-3-yl)-5-(trifluoromethyl)pyrrolo[2,1-f][1,2,4]triazin-4-amine] showed an IC50 of 0.211 µM. This IC50 lies about 5.2-fold lower than the previous one.
In turn, `COc1ncc(-c2cc(C(F)(F)F)c3c(N)ncnn23)cc1C(=O)N1CCC[C@@H](Cc2cccc(F)c2)C1` [Example 133, 7-{5-[(3S)-3-[(3-fluorophenyl)methyl]piperidine-1-carbonyl]-6-methoxypyridin-3-yl}-5-(trifluoromethyl)pyrrolo[2,1-f][1,2,4]triazin-4-amine] came in with a concentration for half-maximal inhibition (IC50) of 0.162 µM. The IC50 values of the last two compounds are within 1.5-fold of each other.
With `Cc1ncc(-c2cc(C(F)(F)F)c3c(N)ncnn23)cc1C(=O)Nc1cnn(Cc2ccccc2)c1` [Example 166, 5-[4-amino-5-(trifluoromethyl)pyrrolo[2,1-f][1,2,4]triazin-7-yl]-N-(1-benzyl-1H-pyrazol-4-yl)-2-methylpyridine-3-carboxamide], half-maximal inhibition (IC50) was put at 0.14 µM.
The result for `Cc1ncc(-c2cc(C(F)(F)F)c3c(N)ncnn23)cc1C(=O)NCCC(O)c1ccccc1` (centres unmarked) [Example 167, 5-[4-amino-5-(trifluoromethyl)pyrrolo[2,1-f][1,2,4]triazin-7-yl]-N-(3-hydroxy-3-phenylpropyl)-2-methylpyridine-3-carboxamide] reads 0.137 µM.
Then `Cc1ncc(-c2cc(C(F)(F)F)c3c(N)ncnn23)cc1C(=O)NCCC(O)c1ccc(F)cc1` (centres unmarked) [Example 168, 5-[4-amino-5-(trifluoromethyl)pyrrolo[2,1-f][1,2,4]triazin-7-yl]-N-[3-(4-fluorophenyl)-3-hydroxypropyl]-2-methylpyridine-3-carboxamide], with 0.247 µM; and `Nc1ncnn2c(-c3cnc(C(F)(F)F)c(C(=O)NCC[C@@H](O)c4ccc(Cl)cc4)c3)cc(C(F)(F)F)c12` [Example 181, 5-[4-amino-5-(trifluoromethyl)pyrrolo[2,1-f][1,2,4]triazin-7-yl]-N-[(3R)-3-(4-chlorophenyl)-3-hydroxypropyl]-2-(trifluoromethyl)pyridine-3-carboxamide], with 0.45 µM.
Then `Nc1ncnn2c(-c3cnc(C(F)(F)F)c(C(=O)Nc4cnn(Cc5ccccc5)c4)c3)cc(C(F)(F)F)c12` [Example 184, 5-[4-amino-5-(trifluoromethyl)pyrrolo[2,1-f][1,2,4]triazin-7-yl]-N-(1-benzyl-1H-pyrazol-4-yl)-2-(trifluoromethyl)pyridine-3-carboxamide], with 1.43 µM; and `CC(CCNC(=O)c1cc(-c2cc(C(F)(F)F)c3c(N)ncnn23)ccc1F)c1ccccc1` (centres unmarked) [Example 243, 5-[4-amino-5-(trifluoromethyl)pyrrolo[2,1-f][1,2,4]triazin-7-yl]-2-fluoro-N-(3-phenylbutyl)benzamide], with over 1.5 µM; and `Nc1ncnn2c(-c3ccc(F)c(C(=O)NCC[C@@H](O)c4ccc(Cl)cc4)c3)cc(C(F)(F)F)c12` [Example 246, 5-[4-amino-5-(trifluoromethyl)pyrrolo[2,1-f][1,2,4]triazin-7-yl]-N-[(3R)-3-(4-chlorophenyl)-3-hydroxypropyl]-2-fluorobenzamide], with 0.237 µM.
Take `Nc1ncnn2c(-c3ccc(F)c(C(=O)NCC[C@H](O)c4ccc(Cl)cc4)c3)cc(C(F)(F)F)c12` [Example 248, 5-[4-amino-5-(trifluoromethyl)pyrrolo[2,1-f][1,2,4]triazin-7-yl]-N-[(3S)-3-(4-chlorophenyl)-3-hydroxypropyl]-2-fluorobenzamide]: the IC50 was over 1.5 µM.
In turn, `Nc1ncnn2c(-c3ccc(F)c(C(=O)NCC4CCCOC4c4ccccc4)c3)cc(C(F)(F)F)c12` (centres unmarked) [Example 250, 5-[4-amino-5-(trifluoromethyl)pyrrolo[2,1-f][1,2,4]triazin-7-yl]-2-fluoro-N-[(2-phenyloxan-3-yl)methyl]benzamide] registered a half-maximal inhibitory concentration (IC50) of 0.514 µM.
Then `Nc1ncnn2c(-c3cnc(F)c(C(=O)NCC[C@@H](O)c4ccc(Cl)cc4)c3)cc(C(F)(F)F)c12` [Example 269, 5-[4-amino-5-(trifluoromethyl)pyrrolo[2,1-f][1,2,4]triazin-7-yl]-N-[(3R)-3-(4-chlorophenyl)-3-hydroxypropyl]-2-fluoropyridine-3-carboxamide], with 0.434 µM; and `Nc1ncnn2c(-c3cnc(F)c(C(=O)Nc4cnn(Cc5ccccc5)c4)c3)cc(C(F)(F)F)c12` [Example 270, 5-[4-amino-5-(trifluoromethyl)pyrrolo[2,1-f][1,2,4]triazin-7-yl]-N-(1-benzyl-1H-pyrazol-4-yl)-2-fluoropyridine-3-carboxamide], with over 1.5 µM; and `CC(CCNC(=O)c1cc(-c2cc(C(F)(F)F)c3c(N)ncnn23)cnc1F)c1ccccc1` (centres unmarked) [Example 271, 5-[4-amino-5-(trifluoromethyl)pyrrolo[2,1-f][1,2,4]triazin-7-yl]-2-fluoro-N-(3-phenylbutyl)pyridine-3-carboxamide], with over 1.5 µM.
In the case of `Nc1ncnn2c(-c3cnc(F)c(C(=O)NCCC(O)c4ccc(F)cc4)c3)cc(C(F)(F)F)c12` (centres unmarked) [Example 272, 5-[4-amino-5-(trifluoromethyl)pyrrolo[2,1-f][1,2,4]triazin-7-yl]-2-fluoro-N-[3-(4-fluorophenyl)-3-hydroxypropyl] pyridine-3-carboxamide], the half-maximal inhibitory concentration (IC50) turned out to be 0.285 µM.
Then `Nc1ncnn2c(-c3cncc(C(=O)Nc4cnn(Cc5ccccc5)c4)c3)cc(C(F)(F)F)c12` [Example 276, 5-[4-amino-5-(trifluoromethyl)pyrrolo[2,1-f][1,2,4]triazin-7-yl]-N-(1-benzyl-1H-pyrazol-4-yl)pyridine-3-carboxamide], with 0.693 µM.
Then `[2H]C([2H])([2H])Oc1ncc(-c2cc(C(F)(F)F)c3c(N)ncnn23)cc1C(=O)N[C@@H]1CN(C(=O)[C@@](C)(O)C(F)(F)F)C[C@@H]1F` [Example 386, 5-[4-amino-5-(trifluoromethyl)pyrrolo [2,1-f][1,2,4]triazin-7-yl]-N-[(3R,4S)-4-fluoro-1-[(2R)-3,3,3-trifluoro-2-hydroxy-2-methylpropanoyl]pyrrolidin-3-yl]-2-(deutero)methoxy-pyridine-3-carboxamide], with 0.367 µM; and `C[C@@](O)(C(=O)N1C[C@H](F)[C@H](NC(=O)c2ccc(F)c(-c3cc(C(F)(F)F)c4c(N)ncnn34)c2)C1)C(F)(F)F` [Example 426, 3-[4-amino-5-(trifluoromethyl)pyrrolo[2,1-f][1,2,4]triazin-7-yl]-4-fluoro-N-[(3R,4S)-4-fluoro-1-[(2R)-3,3,3-trifluoro-2-hydroxy-2-methylpropanoyl]pyrrolidin-3-yl] benzamide, TFA], with 1.18 µM; and `COc1ncc(-c2cc(CN3CCOCC3)c3c(N)ncnn23)cc1C(=O)N[C@@H]1CN(CC(O)C(F)(F)F)C[C@@H]1F` (stereo partly drawn) [Example 481, 5-{4-amino-5-[(morpholin-4-yl)methyl]pyrrolo[2,1-f][1,2,4]triazin-7-yl}-N-[(3R,4S)-4-fluoro-1-(3,3,3-trifluoro-2-hydroxypropyl)pyrrolidin-3-yl]-2-methoxypyridine-3-carboxamide], with 15 µM.
Then `COc1ncc(-c2cc(CN3CCOCC3)c3c(N)ncnn23)cc1C(=O)N[C@@H]1CN(C(=O)C2CC(F)(F)C2)C[C@@H]1F` [Example 487, 5-{4-amino-5-[(morpholin-4-yl)methyl]pyrrolo[2,1-f][1,2,4]triazin-7-yl}-N-[(3R,4S)-1-(3,3-difluorocyclobutanecarbonyl)-4-fluoropyrrolidin-3-yl]-2-methoxypyridine-3-carboxamide], with over 15 µM; and `COc1ncc(-c2cc(CN3CC(F)(F)C3)c3c(N)ncnn23)cc1C(=O)N[C@@H]1CN(C(=O)C2CC(F)(F)C2)C[C@@H]1F` [Example 489, 5-{4-amino-5-[(3,3-difluoroazetidin-1-yl)methyl]pyrrolo[2,1-f][1,2,4]triazin-7-yl}-N-[(3R,4S)-1-(3,3-difluorocyclobutanecarbonyl)-4-fluoropyrrolidin-3-yl]-2-methoxypyridine-3-carboxamide], with 4.13 µM; and `COc1ncc(-c2cc(COC(C)C)c3c(N)ncnn23)cc1C(=O)N[C@@H]1CN(C(=O)C2CC(F)(F)C2)C[C@@H]1F` [Example 491, 5-{4-amino-5-[(propan-2-yloxy)methyl]pyrrolo[2,1-f][1,2,4]triazin-7-yl}-N-[(3R,4S)-1-(3,3-difluorocyclobutanecarbonyl)-4-fluoropyrrolidin-3-yl]-2-methoxypyridine-3-carboxamide], with 1.94 µM.
`COc1ncc(-c2cc(C(F)(F)F)c3c(N)ncnn23)cc1C(=O)N[C@@H]1CN(S(=O)(=O)c2ccccc2C#N)C[C@@H]1F` [Example 502, 5-[4-amino-5-(trifluoromethyl)pyrrolo[2,1-f][1,2,4]triazin-7-yl]-N-[(3R,4S)-1-(2-cyanobenzenesulfonyl)-4-fluoropyrrolidin-3-yl]-2-methoxypyridine-3-carboxamide] returned an IC50 of 3.37 µM.
